Experimental data from patent US20080125469A1, “Thiadiazole compounds and methods of use thereof” (Wyeth, priority 2006, published 2008).

Target: T1, purified recombinant human Aggrecanase-2 (Agg2-Phe628) (Homo sapiens, UniProt Q9UNA0)
T1 construct: (Agg2-Phe628) (MW=41,737), which is a truncated form of full-length human aggrecanase-2; made in house; host or cells: CHO cells
T1 sequence (Q9UNA0 262-628 limits assumed): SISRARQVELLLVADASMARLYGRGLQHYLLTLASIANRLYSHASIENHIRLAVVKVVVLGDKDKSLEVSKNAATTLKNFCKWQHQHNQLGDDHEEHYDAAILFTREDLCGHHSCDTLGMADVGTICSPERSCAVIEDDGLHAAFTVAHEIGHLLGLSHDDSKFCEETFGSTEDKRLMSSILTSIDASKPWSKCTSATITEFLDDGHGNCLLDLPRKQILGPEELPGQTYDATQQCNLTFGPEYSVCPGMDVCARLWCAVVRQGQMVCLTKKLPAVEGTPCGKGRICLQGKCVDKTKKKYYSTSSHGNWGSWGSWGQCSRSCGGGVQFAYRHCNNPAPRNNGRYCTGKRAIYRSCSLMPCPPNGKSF
Test: Aggrecanase 2 continuous in vitro fluorescence assay
Assay type: biochemical
Conditions: Agg2-Phe628 0.5 μg/ml, substrate 25 μM, 30° C.
Experimental: A continuous vitro fluorescence assay was employed, wherein the enzyme used in the assay was a purified recombinant human Aggrecanase-2 (Agg2-Phe628) (MW=41,737), which is a truncated form of full-length human aggrecanase-2 that was expressed in CHO cells and purified prior to use. The final concentration of Agg2-Phe628 was 0.5 μg/ml. The buffer used in this assay was 50 mM HEPES, pH 7.5, 100 mM NaCl, 5 mM CaCl2, 0.1% CHAPS, 5% glycerol. The substrate used in the assay was a synthetic peptide having the sequence ABz-TESESRGAIY-Dap(Dnp)-KK—NH2 (>95% pure by HPLC, AnaSpec, Inc.), wherein Abz refers to ortho-aminobenzyl, a fluorescent group which is quenched by energy transfer to a 2,4-dinitrophenyl group. The final concentration of substrate in the assay was 25 μM and was spectrophotometrically determined using the extinction coefficient at 354 nm of 18,172 M^−1cm^−1. The Vmax and Km for this enzyme/substrate reaction were determined to be insensitive to DMSO up to at least 10% (v/v).
An illustrative Thiadiazole Compound (in duplicate) was serially diluted from 2 mM to 0.01 μM in DMSO. The total reaction volume was 100 μl. […]
The fluorescence intensity is linear during the time of data collection. […] The maximal rate of cleavage of substrate was determined in the absence of inhibitor. The percent inhibition of activity in the presence of inhibitor was calculated using the following equation: […]

IC50: 644 nM
Compound: COc1ccc(C2=NNC3(S2)C(=O)N(Cc2ccccc2)c2ccc(C)cc23)cc1 (stereo not shown) [Compound 22, 1-benzyl-5′-(4-methoxyphenyl)-5-methyl-3′H-spiro[indole-3,2′-[1,3,4]thiadiazol]-2(1H)-one]
